From US11845759B2, “Opioid compounds and uses thereof” (priority 2018, dated 2023)

Experiments:
[1] = target: T1, μ-opioid receptor (Homo sapiens (Human), UniProt P35372); format: binding
[2] = target: T1, μ-opioid receptor; assay: [35S]GTPγS μ-opioid receptor functional assay; format: biochemical

SMILES	Ki [1] [nM]	Ki compared with that of oxycodone (in words) [1]	EC50 [2] [nM]	IC50 [2] [nM]	% Response Agonist ([2]; Conc. 3 μM, criteria ≥± 50%) [%]
COc1ccc2c3c1OC1C(=O)CCC4(OC(C)=O)C(C2)N(C)CCC314 (centres unmarked) [14-acetyl oxycodone]	18	lower	660		
CCCCCCCCCCCC(=O)O[C@@]12CCC(=O)C3Oc4c(OC)ccc5c4[C@@]31CCN(C)[C@@H]2C5 (some centres unmarked) [14-lauroyl oxycodone]	160	higher	1150	18800	
COc1ccc2c3c1O[C@H]1C(=O)CC[C@@]4(O)[C@@H](C2)N(C)CC[C@]314.Cl [Oxycodone hydrochloride, reference compound]					82
